{
  "source": "patent US7855196B2",
  "about": "(priority 2005, dated 2010)",
  "experiment": "Patient's pain rated on the 11-point numerical pain rating scale (clinical case examples)",
  "settings": "Example 2: phantom pain, on gabapentin and fentanyl patches; midazolam 2 mg iv; before 7/10",
  "data": [
    {"smiles": "Cc1ncc2n1-c1ccc(Cl)cc1C(c1ccccc1F)=NC2", "note": "[midazolam]", "values": [
      {"measurement": "pain level after treatment", "result": "0/10"}
    ]}
  ]
}
